{
  "source": "patent US20090305993A1",
  "about": "“METHODS AND COMPOSITION FOR THE TREATMENT OF GASTROINTESTINAL DISORDERS” (IRONWOOD PHARMACEUTICALS, INC., priority 2006, published 2009)",
  "biological_target": "T1, carboxypeptidase A (Homo sapiens, UniProt P15085)",
  "T1 sequence (P15085 111-419)": "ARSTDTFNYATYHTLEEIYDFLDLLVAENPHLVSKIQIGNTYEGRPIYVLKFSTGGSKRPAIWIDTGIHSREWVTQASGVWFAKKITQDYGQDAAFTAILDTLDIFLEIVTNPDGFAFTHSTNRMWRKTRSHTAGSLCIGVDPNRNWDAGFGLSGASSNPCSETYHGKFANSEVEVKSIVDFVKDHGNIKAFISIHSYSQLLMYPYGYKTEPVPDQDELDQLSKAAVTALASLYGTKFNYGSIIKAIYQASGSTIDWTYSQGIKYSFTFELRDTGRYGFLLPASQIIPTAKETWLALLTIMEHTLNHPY",
  "assay": "in vitro proteolytic stability, carboxypeptidase A",
  "data": [
    {"substance": "N-CBZ-Glycine-Glycine-Leucine [Z-Gly-Gly-Leu, reference compound]", "values": [
      {"measurement": "proteolysis by carboxypeptidase A", "setting": "37° C., FIG. 13a, 13b", "value": "proteolyzed"},
      {"measurement": "average calculated concentration of parent", "setting": "T0 control and T0 samples", "value": "7.1 (+/−0.30) μg/mL"},
      {"measurement": "calculated concentrations of the products", "setting": "T3 h and T24 h samples", "value": "2.2 (+/−0.010) μg/mL"},
      {"measurement": "parent (precursor mass)", "setting": "T3 h and T24 h samples", "value": "No precursor mass was detected"}
    ]}
  ]
}
